# Results as given in patent publication US11642369B2, “Method for enhancing expression of antioxidant in epidermis” (J-Network, Inc., priority 2020, dated 2023).
# System: Normal human epidermal melanocytes (NHEM)
# Details: 250 μM, 24 hours, FIG. 15
# Experimental: Normal human epidermal melanocytes (NHEM: from Kurabo Industries Ltd.) were seeded at a cell density of 2.0×10^4 cells/well in a 96-well culture plate using a medium (DermaLife (registered trademark) M Comp kit medium: from Kurabo Industries Ltd.). Subsequently, the cells were cultured at 37° C. under 5% carbon dioxide for 24 hours. […] After the culture, a cell viability was measured by the neutral red assay. A cell viability of each sample with HQ or BQ added thereto was calculated assuming that a cell viability of an additive-free control (N.C.) was 100%.
structure (smiles),measurement,value
O=C1C=CC(=O)C=C1 [benzoquinone],cytotoxicity (cell viability),exhibit cytotoxicity
